Measured values published in patent US6372719B1, “ανβ3 integrin antagonists in combination with chemotherapeutic agents” (priority 1998, dated 2002).

The chains behind the UniProt entries cited, without tags or fusion partners. Residues count along the entry.
UniProt P05106, 27-788 limits assumed: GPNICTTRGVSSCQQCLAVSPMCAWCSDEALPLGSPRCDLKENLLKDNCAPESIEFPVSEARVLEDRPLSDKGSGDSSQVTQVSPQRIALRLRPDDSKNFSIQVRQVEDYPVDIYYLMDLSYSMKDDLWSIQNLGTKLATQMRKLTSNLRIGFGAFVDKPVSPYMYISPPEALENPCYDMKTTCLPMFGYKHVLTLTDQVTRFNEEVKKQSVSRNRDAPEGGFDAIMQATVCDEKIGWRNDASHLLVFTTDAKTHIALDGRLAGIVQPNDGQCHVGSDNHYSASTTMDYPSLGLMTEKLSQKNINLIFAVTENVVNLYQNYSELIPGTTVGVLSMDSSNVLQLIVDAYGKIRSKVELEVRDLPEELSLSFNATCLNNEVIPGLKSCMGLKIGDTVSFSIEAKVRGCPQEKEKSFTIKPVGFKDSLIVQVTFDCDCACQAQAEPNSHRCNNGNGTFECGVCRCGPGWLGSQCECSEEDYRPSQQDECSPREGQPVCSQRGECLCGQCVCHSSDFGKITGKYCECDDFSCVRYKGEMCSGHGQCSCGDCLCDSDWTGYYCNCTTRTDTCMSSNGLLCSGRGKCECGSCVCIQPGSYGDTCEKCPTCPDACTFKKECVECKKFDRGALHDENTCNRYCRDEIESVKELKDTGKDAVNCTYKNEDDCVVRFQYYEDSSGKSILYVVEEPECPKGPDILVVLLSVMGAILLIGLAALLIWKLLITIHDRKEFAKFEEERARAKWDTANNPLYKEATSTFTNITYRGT
UniProt P08514, 32-887 limits assumed: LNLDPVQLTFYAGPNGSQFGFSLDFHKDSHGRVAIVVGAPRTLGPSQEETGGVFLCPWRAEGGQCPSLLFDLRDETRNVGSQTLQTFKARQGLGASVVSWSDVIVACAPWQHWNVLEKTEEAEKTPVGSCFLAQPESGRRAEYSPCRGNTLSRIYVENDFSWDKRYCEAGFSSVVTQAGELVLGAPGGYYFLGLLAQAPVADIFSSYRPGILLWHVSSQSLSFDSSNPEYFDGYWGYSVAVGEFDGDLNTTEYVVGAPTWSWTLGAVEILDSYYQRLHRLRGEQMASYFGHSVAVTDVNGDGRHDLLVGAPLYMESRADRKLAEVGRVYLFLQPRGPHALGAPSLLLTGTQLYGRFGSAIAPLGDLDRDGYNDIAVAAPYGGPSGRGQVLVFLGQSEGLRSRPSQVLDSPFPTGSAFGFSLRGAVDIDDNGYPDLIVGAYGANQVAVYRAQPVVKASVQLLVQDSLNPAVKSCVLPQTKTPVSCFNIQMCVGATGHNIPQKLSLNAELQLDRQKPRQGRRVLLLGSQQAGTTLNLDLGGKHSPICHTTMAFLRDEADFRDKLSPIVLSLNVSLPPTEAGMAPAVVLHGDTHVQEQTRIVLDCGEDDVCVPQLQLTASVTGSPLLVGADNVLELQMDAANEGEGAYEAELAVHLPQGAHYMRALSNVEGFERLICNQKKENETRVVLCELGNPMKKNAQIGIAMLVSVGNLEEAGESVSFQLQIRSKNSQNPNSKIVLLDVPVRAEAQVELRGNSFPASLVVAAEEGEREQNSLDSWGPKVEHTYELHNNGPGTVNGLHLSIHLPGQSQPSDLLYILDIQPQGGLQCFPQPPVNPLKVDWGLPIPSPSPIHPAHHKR
UniProt P08514, 891-1039 partner limits assumed: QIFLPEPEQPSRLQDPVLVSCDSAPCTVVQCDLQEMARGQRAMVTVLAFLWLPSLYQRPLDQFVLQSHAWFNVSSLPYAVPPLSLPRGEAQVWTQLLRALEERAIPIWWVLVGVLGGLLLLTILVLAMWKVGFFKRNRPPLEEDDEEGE
UniProt P06756, 31-889 limits assumed: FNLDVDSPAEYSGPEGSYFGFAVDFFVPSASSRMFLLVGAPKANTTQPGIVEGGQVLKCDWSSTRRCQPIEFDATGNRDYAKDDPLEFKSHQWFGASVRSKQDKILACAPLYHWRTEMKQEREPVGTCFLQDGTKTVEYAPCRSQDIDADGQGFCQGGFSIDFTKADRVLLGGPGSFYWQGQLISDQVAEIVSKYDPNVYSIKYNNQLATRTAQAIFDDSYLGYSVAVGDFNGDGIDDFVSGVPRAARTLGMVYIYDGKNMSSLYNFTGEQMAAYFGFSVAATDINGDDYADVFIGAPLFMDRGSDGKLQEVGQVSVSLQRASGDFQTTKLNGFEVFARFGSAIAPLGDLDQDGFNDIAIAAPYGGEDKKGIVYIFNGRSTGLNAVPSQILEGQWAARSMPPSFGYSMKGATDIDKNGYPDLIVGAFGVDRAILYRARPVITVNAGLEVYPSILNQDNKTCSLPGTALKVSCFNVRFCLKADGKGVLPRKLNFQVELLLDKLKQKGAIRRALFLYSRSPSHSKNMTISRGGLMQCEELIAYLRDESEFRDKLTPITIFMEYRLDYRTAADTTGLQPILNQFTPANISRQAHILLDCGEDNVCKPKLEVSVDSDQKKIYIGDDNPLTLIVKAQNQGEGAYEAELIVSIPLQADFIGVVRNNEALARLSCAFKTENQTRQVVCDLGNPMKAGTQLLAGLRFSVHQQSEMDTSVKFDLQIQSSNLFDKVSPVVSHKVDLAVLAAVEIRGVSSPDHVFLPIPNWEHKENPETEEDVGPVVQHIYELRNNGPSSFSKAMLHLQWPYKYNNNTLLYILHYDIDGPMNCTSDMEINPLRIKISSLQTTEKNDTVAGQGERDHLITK
UniProt P06756, 891-1048 partner limits assumed: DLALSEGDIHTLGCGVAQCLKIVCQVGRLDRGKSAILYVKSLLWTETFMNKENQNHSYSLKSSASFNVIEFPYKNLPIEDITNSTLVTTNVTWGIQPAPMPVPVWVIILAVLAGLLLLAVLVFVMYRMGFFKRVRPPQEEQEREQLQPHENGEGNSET

Key:
LLC tumor = test: Tumor growth inhibition, LLC tumor in mice
[1] = target: human fibrinogen receptor (αIIbβ3) (Homo sapiens, UniProt P05106+P08514); test: Purified IIb/IIIa receptor assay, solid phase receptor assay; conditions: read-out: IC50 vs αIIbβ3; in vitro
From the text: Purified IIb/IIIa Receptor Assay
Human fibrinogen receptor (αvβ3) was purified from outdated platelets. (Pytela, R., Pierschbacher, M. D., Argraves, S., Suzuki, S., and Rouslahti, E. “Arginine-Glycine-Aspartic acid adhesion receptors”, Methods in Enzymology 144(1987):475-489.) Human vitronectin was purified from fresh frozen plasma as described in Yatohgo, T., Izumi, M., Kashiwagi, H., and Hayashi, M., “Novel purification of vitronectin from human plasma by heparin affinity chromatography,” Cell Structure and Function 13(1988):281-292. Biotinylated human vitronectin was prepared by coupling NHS-biotin from Pierce Chemical Company (Rockford, Ill.) to purified vitronectin as previously described. […]
This assay is essentially the same reported in Niiya, K., Hodson, E., Bader, R., Byers-Ward, V. Koziol, J. A., Plow, E. F. and Ruggeri, Z. M., “Increased surface expression of the membrane glycoprotein IIb/IIIa complex induced by platelet activation: Relationships to the binding of fibrinogen and platelet aggregation”, Blood 70(1987):475-483. […] The plate was read with a microtiter plate reader at a wavelength of 450 nm and when the maximum-binding control wells reached an absorbance of about 1.0, the final A450 were recorded for analysis. The data were analyzed using a macro written for use with the EXCEL™ spreadsheet program. […]

M21 human melanoma = test: Tumor growth inhibition, M21 human melanoma in mice; assay type: in vivo, SCID mice
angiogenesis = test: Mouse corneal micropocket assay; assay type: in vivo; conditions: oral administration, 40 mg/kg
[2] = target: Human vitronectin receptor (αvβ3) (Homo sapiens, UniProt P05106+P06756); test: Vitronectin adhesion assay, solid phase receptor assay; conditions: read-out: IC50 αvβ3; inhibition of biotinylated vitronectin binding to purified receptor, in vitro
Description: Vitronectin Adhesion Assay Materials
Human vitronectin receptor (αvβ3) was purified from human placenta as previously described [Pytela et al., Methods in Enzymology 144:475-489 (1987)]. Human vitronectin was purified from fresh frozen plasma as previously described [Yatohgo et al., Cell Structure and Function, 13:281-292 (1988)]. Biotinylated human vitronectin was prepared by coupling NHS-biotin from Pierce Chemical Company (Rockford, Ill.) to purified vitronectin as previously described [Charo et al., J. Biol. Chem., 266(3):1415-1421 (1991)]. Assay buffer, OPD substrate tablets, and RIA grade BSA were obtained from Sigma (St. Louis, Mo.). Anti-biotin antibody was obtained from Calbiochem (La Jolla, Calif.). Linbro microtiter plates were obtained from Flow Labs (McLean, Va.). ADP reagent was obtained from Sigma (St. Louis, Mo.).
Solid Phase Receptor Assays
This assay was essentially the same as previously reported [Niiya et al., Blood, 70:475-483 (1987)]. […] The plate was read with a microtiter plate reader at a wavelength of 450 nm and when the maximum-binding control wells reached an absorbance of about 1.0, the final A450 were recorded for analysis. The data were analyzed using a macro written for use with the EXCEL spreadsheet program. The mean, standard deviation, and % CV were determined for duplicate concentrations. […]

Rice Leydig tumor cells = test: Tumor growth inhibition, Rice Leydig tumor in SCID mice
[3] = system: Human microvessel endothelial cell; test: Human microvessel endothelial cell proliferation and migration; assay type: cell-based; conditions: human microvessel endothelial cells, αvβ3 dependent

SMILES: O=C(O)C[C@H](NC(=O)CNC(=O)c1cc(O)cc(NC2=NCC(O)CN2)c1)c1cc(Cl)cc(Br)c1O (some centres unmarked)
- Median survival time (LLC tumor; cisplatin 10 mg/kg ip day 5, XII at 10 mg/kg): 33 days
- Effect on growth of the LLC tumor (LLC tumor; cisplatin single ip dose 10 mg/kg on day 5, XII 1 and 10 mg/kg, oral, BID from day 1): did not affect
- IC50 [1]: 200 nM
- Inhibition of M21 human melanoma tumor growth (M21 human melanoma; SCID mice, dose range 0.2-30 mg/kg): dose-dependently inhibited
- Reduction in final tumor volume (M21 human melanoma; XII 10 mg/kg BID PO from day 21, added to cyclophosphamide 150 mg/kg ip days 14, 16, 18): 44%
- Inhibition of tumor growth with XII relative to cisplatin (M21 human melanoma; cisplatin at a maximum tolerated dose): additive
- Inhibition of angiogenesis (angiogenesis): significantly inhibited
- IC50 [2]: < 1 nM
- Inhibition of hypercalcemia (Rice Leydig tumor cells; administered orally, SCID mice): in a dose-dependent manner
- Inhibition of tumor growth (Rice Leydig tumor cells; administered orally, SCID mice): in a dose-dependent manner
- Tumor growth inhibition (Rice Leydig tumor cells; cisplatin at maximum tolerated dose, XII 10 mg/kg PO, compared to control-treated mice): 10%
- Effect on survival time (Rice Leydig tumor cells; tumor bearing SCID mice): little effect
- Inhibition of endothelial cell migration [3]: dose-dependently inhibited
- Inhibition of endothelial cell proliferation [3]: dose-dependently inhibited
